Assay results from ChEMBL document CHEMBL1127992, “Novel conformationally restricted aromatic piperidines as selective sigma receptor ligands” (Bioorg Med Chem Lett, 1994).

Molecular target: Sigma non-opioid intracellular receptor 1 (Homo sapiens, UniProt Q99720)
Test: Inhibition of [3H](+)-SKF-10047 binding to sigma receptor

Structure (SMILES) | Ki [nM]
C(=C\c1ccccc1)/CN(c1ccccc1)C1CCN(Cc2ccccc2)CC1.O=C(O)/C=C/C(=O)O | 1500
C(#Cc1ccccc1)CN(c1ccccc1)C1CCN(Cc2ccccc2)CC1.O=C(O)/C=C/C(=O)O | 22
